Data: ChEMBL document CHEMBL4118021, “Studies of TAK1-centered polypharmacology with novel covalent TAK1 inhibitors” (Bioorg Med Chem, 2017)
pIC50: −log10 of the molar value. Activity calls are given as the source filed them. No cut-off for these calls is given here.

What was measured:
[1] = target: T1, Mitogen-activated protein kinase kinase kinase 7 (Homo sapiens) (UniProt O43318); assay: Inhibition of TAK1 in RA patient-derived synovial fibroblasts assessed as inhibition of IL-1alpha-induced cytokine secretion at 3 uM preincubated for 3 hrs followed by IL-1alpha stimulation measured after 18 hrs by sandwich immunoassay
T1 sequence (whole entry): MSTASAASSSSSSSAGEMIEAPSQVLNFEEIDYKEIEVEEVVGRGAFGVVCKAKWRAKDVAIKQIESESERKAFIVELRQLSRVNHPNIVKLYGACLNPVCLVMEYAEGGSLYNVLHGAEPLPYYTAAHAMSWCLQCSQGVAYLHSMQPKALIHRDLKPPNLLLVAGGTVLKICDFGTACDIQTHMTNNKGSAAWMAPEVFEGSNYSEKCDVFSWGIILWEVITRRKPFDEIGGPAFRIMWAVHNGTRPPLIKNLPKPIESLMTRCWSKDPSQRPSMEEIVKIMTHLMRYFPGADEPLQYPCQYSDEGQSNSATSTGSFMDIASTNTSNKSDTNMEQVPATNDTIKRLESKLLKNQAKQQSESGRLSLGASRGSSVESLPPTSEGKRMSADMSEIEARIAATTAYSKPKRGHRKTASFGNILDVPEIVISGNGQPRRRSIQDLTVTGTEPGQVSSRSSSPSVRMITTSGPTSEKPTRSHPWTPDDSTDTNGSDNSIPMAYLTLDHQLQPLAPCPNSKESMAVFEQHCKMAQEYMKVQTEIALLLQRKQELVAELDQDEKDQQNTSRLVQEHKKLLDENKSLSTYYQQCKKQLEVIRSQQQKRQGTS
How it was run: (§1)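 Primary RA synovial fibroblasts (donor RA2159) seeded 1000 cells/well and grown ~24 h at 37 °C, 5% CO2. Starved overnight in basal medium, then ~4 h in basal medium with 0.1% BSA. Two adjacent wells pooled per replicate, in biological duplicate. Supernatants diluted 1:3 and run on Luminex 27-plex/21-plex sandwich immunoassays for 48 analytes, with spiked-ligand and mock-supernatant background controls.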

[2] = target: T1, Mitogen-activated protein kinase kinase kinase 7 (Homo sapiens); conditions: NCI-H358, 1 uM
[3] = target: T1, Mitogen-activated protein kinase kinase kinase 7 (Homo sapiens); assay: Inhibition of TAK1 in RA patient-derived synovial fibroblasts assessed as inhibition of TNFalpha-induced cytokine secretion at 3 uM preincubated for 3 hrs followed by TNFalpha stimulation measured after 18 hrs by sandwich immunoassay; how it was run: as §1
[4] = target: T1, Mitogen-activated protein kinase kinase kinase 7 (Homo sapiens); assay: Inhibition of TAK1 in RA patient-derived synovial fibroblasts assessed as inhibition of poly(I:C)-induced cytokine secretion at 3 uM preincubated for 3 hrs followed by poly(I:C) stimulation measured after 18 hrs by sandwich immunoassay; how it was run: as §1
[5] = target: T2, Mitogen-activated protein kinase kinase kinase 7 (Homo sapiens, UniProt O43318); assay: Inhibition of TAK1 (unknown origin) by LanthaScreen assay
T2 sequence (O43318 whole entry): T1 sequence (whole entry)

inhibition [1]	inhibition [2]	inhibition [3]	inhibition [4]	Structure (SMILES)	pIC50 [5]
Active	Active	Active	Active	CCN1CCN(Cc2ccc(NC(=O)c3ccc(C)c(Oc4ccnc5[nH]ccc45)c3)cc2C(F)(F)F)CC1	–
–	–	–	–	COc1cc(O)c2c(c1)/C=C/C[C@H](O)[C@H](O)C(=O)/C=C\C[C@H](C)OC2=O	8.25
